Values of other authors as cited in patent US20250302717A1, “Systems and Methods for Making Personal Care Products” (published 2025).

System: skin, immune system, respiratory tract

Which toxicity in humans does the source give for `OCCN(CCO)CCO` here?
The toxicity in humans was “toxic to the skin, the immune system, and the respiratory tract”.
